Results published in US12023323B2, “Carbohydrate-binding small molecules with antiviral activity” (priority 2018, dated 2024).

How the values were obtained:
[1] = 1H NMR titration with octyloxy pyranoside β-Man; type: binding; conditions: NMR titrations in CD2Cl2 at 298 K
[2] = Selectivity across the five octyloxy pyranosides from NMR titrations; type: binding; conditions: CD2Cl2, 298 K
Vero cells = test: Cellular toxicity, CellTiter-Glo, Vero cells; conditions: read-out: TC50, Table 1, 72 h
HeLa cells = test: Cellular toxicity, CellTiter-Glo, HeLa cells; conditions: read-out: TC50, Table 2, 72 h
[3] = NMR dilution experiments for dimerization; type: physicochemical; conditions: dilution experiments in CD2Cl2

Substance: (1E,1′E,1″E,1′″E)-N,N,N′,N″-([1,1′-biphenyl]-3,3′,5,5′-tetrayltetrakis(methylene))tetrakis(1-(furan-2-yl)methanimine)
- Ka (M^−1) with β-Man ([1]; 1:1 binding): 37 M⁻¹

Substance: 1,1′,1′″-([1,1′-biphenyl]-3,3′,5,5′-tetrayl)tetrakis(N-((1-methyl-1H-imidazol-2-yl)methyl)methanamine)
- Ka (M^−1) with β-Man ([1]; 1:1 binding): 590 M⁻¹

Substance: (1E,1′E,1″E,1′″E)-N,N,N″,N″-([1,1′-biphenyl]-3,3′,5,5′-tetrayltetrakis(methylene))tetrakis(1-(thiophen-2-yl)methanimine)
- Ka (M^−1) with β-Man [1]: c
- binding profile across the glycans in words [2]: did not have quantifiable binding

Substance: (1E,1′E,1″E,1′″E)-N,N,N′,N″-([1,1′-biphenyl]-3,3′,5,5′-tetrayltetrakis(methylene))tetrakis(1-(1H-pyrrol-2-yl)methanimine)
- CC50 (Vero cells): 46.1 µM
- CC50 (HeLa cells): 17.6 µM
- Ka (M^−1) with β-Man ([1]; 1:1 binding): 2400 M⁻¹
- glycan preference in words [2]: selective for β-Gal
- dimerization in words [3]: Dimerization was only observed
